Earlier results, collected in paper PMC10019135.

Amino acid sequences for entries named in this document (tags omitted). Residues count along the entry.
UniProt P01589, 22-240, chain 1 of 3: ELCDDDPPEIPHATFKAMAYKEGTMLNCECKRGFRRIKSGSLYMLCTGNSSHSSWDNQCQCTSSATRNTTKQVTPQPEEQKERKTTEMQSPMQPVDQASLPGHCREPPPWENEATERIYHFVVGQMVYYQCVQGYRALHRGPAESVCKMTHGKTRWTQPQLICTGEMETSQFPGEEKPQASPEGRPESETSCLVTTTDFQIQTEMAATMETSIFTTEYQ
UniProt P60568, 21-153: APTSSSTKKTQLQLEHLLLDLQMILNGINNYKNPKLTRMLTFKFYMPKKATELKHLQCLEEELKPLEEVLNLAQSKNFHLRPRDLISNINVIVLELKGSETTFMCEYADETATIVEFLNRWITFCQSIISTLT

Molecular target: IL-2Rα/β/γc heterotrimer (Homo sapiens) (UniProt P01589)

Kd: 10 pM
Substance: IL-2 (from UniProt P60568)
